# Experimental data taken from US20240024308A1, “TLR7/8 ANTAGONISTS FOR THE TREATMENT OF CORONAVIRUS INFECTIONS” (Merck Healthcare KGaA, priority 2020, published 2024).
# Assay: Phase I healthy volunteer study, pharmacokinetics
compound,measurement,setting,value
"N#Cc1ccc(N2C[C@H](N)C[C@H](C(F)(F)F)C2)c2cccnc12 (single isomer, unassigned) [Compound 3]",dose proportionality of pharmacokinetics (PK),Phase I healthy volunteers,dose-proportional
same,metabolism,not the common CYP450 enzymes,mainly metabolized by aldehyde oxidase
